Measurements reported in US20260382581A1, “COMPOSITIONS COMPRISING CYTISINE IN THE TREATMENT AND/OR PREVENTION OF ADDICTION IN SUBJECTS IN NEED THEREOF” (published 2026).

Experiments:
[1] = ORCA-3: abnormal laboratory adverse events related to study drug
From the text: Routine laboratory safety samples will be analyzed at screening and at clinic visits as identified in Table 15 for each subject by a central laboratory. A decision regarding whether a result outside the reference range is of clinical significance or not will be made by an Investigator, and the report will be annotated accordingly. Clinically significant abnormalities occurring during the study will be recorded on the AE page. The reference ranges for laboratory parameters will also be entered in the database and filed in the Investigator site file.
Hematology: Hemoglobin, red blood cells, white blood cells, neutrophils, lymphocytes, monocytes, eosinophils, basophils, and platelets.
Chemistry: Total protein, albumin, total bilirubin, SGPT (ALT), SGOT (AST), alkaline phosphatase, glucose, sodium, potassium, calcium, creatinine, and urea.

[2] = ORCA-3: psychiatric reported adverse events
From the text: Safety will be assessed by consideration of all adverse events reported by or elicited from the subject and abnormalities detected on hematology and serum chemistry tests. Worsening of other pre-existing medical conditions and any changes to concomitant medications/treatments will also be taken into account in this evaluation.
Adverse events (AEs) will be coded using the MedDRA dictionary. Coding will include system organ class (SOC) and preferred term (PT). All verbatim descriptions and coded terms will be listed for all AEs.

[3] = test system: adult users of nicotine e-cigarettes; experiment: claude (Example 3): vaping cessation from Week 9 to Week 12 (primary endpoint; odds ratios, relative risks, risk differences, exact tests)
Protocol: This Example describes a Phase 2 ORCA-V1 trial evaluated 160 adult e-cigarette users at 5 clinical trial locations in the United States. The trial completed enrollment in approximately 4 months. ORCA-V1 participants were randomized to receive 3 mg cytisinicline three times daily or placebo for 12 weeks in combination with standard cessation behavioral support. The dose and administration of cytisinicline in the ORCA-V1 study is identical to that used in the Phase 3 registrational trials for smoking cessation.
To evaluate cytisinicline as an aid to vaping cessation in adult users of nicotine e-cigarettes who intend to quit, a multi-center, double-blind, randomized, placebo-controlled study was conducted. Subjects were randomized 2:1 (100 cytisinicline: 50 Placebo) with 160 total randomized (FIG. 56). Subjects were stratified on whether they have smoked>100 cigarettes in their lifetime (yes vs no) (FIG. 57). Study size will have 95% power to detect a ~19% reduction in cotinine levels from baseline. Odds ratio (95% confidence interval) will exclude one when cytisinicline abstinence success is >18%; Example, a 6% placebo rate versus 18% outcome or odds ratio of 3.44 will be significant. Missing data may be assumed as reported vaping. Quit rates for 3 mg cytisinicline vs placebo results in odds ratio of 2.64 (P=0.036) (FIGS. 58A and B).
The first measurement consisted of biochemically verified continuous vaping abstinence during the last 4 weeks of treatment after 12 weeks of cytisinicline treatment vs placebo. Vaping abstinence during weeks 9-12 was verified with no reported vaping with weekly saliva cotinine levels<10 ng/mL. Primary Analysis with prospective stratification factor odds ratio was 2.64 (p=0.035), primary analysis with site as a stratification factor odds ratio was 3.03 (p=0.017), and primary analysis without any stratification factor odds ratio was 2.62 (p=0.035) (FIG. 59).
Odds ratio (OR): an OR estimate materially greater than one indicates benefit. The OR is the ratio of the odds of success in the Cytisinicline Arm divided by the offs of success in the Placebo Arm. The odds for arm is the ratio of the probability of success divided by the probability of non-success (FIGS. 58A and B).
Probability Difference: A probability difference estimate materially greater than zero indicates benefit. A probability difference is the probability of success in the Cytisinicline Arm minus the probability of success in the Placebo Arm.
In stratified 2×2 frequency table: the 2×2 structure is arm by the binary outcome. In 2×2 frequency table: arm by the binary outcome.
Primary Analysis: Analysis of primary response outcome using stratified 2×2 exact methodology: (<100 cigarettes in a lifetime or not) by arm by primary response. Variability results from a Cochran-Mantel-Haenszel analysis are shown (FIGS. 39 and 40). Effect size of interest is the estimate of the common odds ratio.
Primary Marginal and Secondary Outcomes: the primary outcome analysis (not stratified) and the secondary outcomes are analyzed using Fisher's exact test. A forest graph compares the primary outcome marginal and secondary outcome effects (FIG. 43)
Vaping cessation is defined for each subject as binary: success versus failure. Success is biochemically verified vaping abstinence documented at Weeks 9, 10, 11, and 12. At each visit, success will be defined for an individual subject as having reported vaping abstinence (no nicotine-containing vaping since the last clinic visit) and having saliva cotinine<10 ng/mL.

[4] = test system: neuronal alpha4, beta2 (α4β2) receptors; conditions: cited from earlier work
[5] = Week 9 to 12, Table 52 (S = 1), row total 77
[6] = Week 9 to 12, controlling for S = 0, row total 30
[7] = X by Y controlling for S, Week 9 to 12, vs placebo
[8] = additional statistics, X by Y, N = 160, Week 9 to 12, vs placebo

SMILES: O=c1cccc2n1C[C@@H]1CNC[C@H]2C1
- Elevated AST Level: severity ([1]; start Day 29, 129 IU/L at AE, dose not changed): Mild
- Elevated ALT Level: severity ([1]; start Day 29, 195 IU/L at AE, dose not changed): Mild
- Elevated ALT Level: outcome of adverse event ([1]; start Day 29, dose not changed): Recovered/Resolved
- Elevated AST Level: outcome of adverse event ([1]; start Day 29, dose not changed): Recovered/Resolved
- Elevated ALT Level: parameter value at AE ([1]; start Day 29, value at screening 25 IU/L, dose not changed): 195 IU/L
- Elevated AST Level: parameter value at AE ([1]; start Day 29, value at screening 29 IU/L, dose not changed): 129 IU/L
- Low White Blood Count: parameter value at AE ([1]; start Day 85, value at screening 5.1 × 10^9/L): 2.5e+09 L⁻¹
- Elevated ALT: severity ([1]; start Day 169, 82 IU/L at AE): Moderate
- Elevated ALT: parameter value at AE ([1]; start Day 169, value at screening 50 IU/L): 82 IU/L
- Abnormal dreams, % [2]: 7.5%
- Acute stress disorder, % [2]: 0.1%
- Adjustment disorder with depressed mood, % [2]: 0.1%
- Affect lability, % [2]: 0.1%
- Anhedonia, % [2]: 0.5%
- Anxiety, % [2]: 2.5%
- Bipolar disorder, % [2]: 0.1%
- Bruxism, % [2]: 0.1%
- Depressed mood, % [2]: 0.5%
- Depression, % [2]: 2.0%
- Initial insomnia, % [2]: 0.3%
- Insomnia, % [2]: 10.2%
- Irritability, % [2]: 1.7%
- Major depression, % [2]: 0.1%
- Mood swings, % [2]: 0.1%
- Nightmare, % [2]: 1.1%
- Panic attack, % [2]: 0.3%
- Paranoia, % [2]: 0.1%
- Post-traumatic stress disorder, % [2]: 0.1%
- Psychiatric disorders, % [2]: 22.9%
- Restlessness, % [2]: 0.3%
- Sleep disorder, % [2]: 0.5%
- Somnambulism, % [2]: 0.1%
- Stress, % [2]: 0.1%
- Suicidal ideation, % [2]: 0.1%
- Suicide attempt, % [2]: 0.3%
- vaping cessation rate weeks 9-12 ([3]; 3 mg TID 12 weeks): 31.8%
- odds to have quit vaping during last 4 weeks of treatment (times higher vs placebo) ([3]; 3 mg TID 12 weeks, p=0.035): 2.6 times
- odds ratio, vaping cessation weeks 9-12 ([3]; 3 mg TID vs placebo, prospective stratification factor (smoked >100 cigarettes)): 2.64
- Vaping cessation from Week 9 to Week 12, % ([3]; 12 wks cytisinicline, All Randomized Set, N = 107): 31.8% and 31.78%
- Risk Difference, lower 95% confidence limit, Exact (Score) ([3]; Column 1 (Y = 0)): 0.0072
- Risk Difference, upper 95% confidence limit, Exact (Score) ([3]; Column 1 (Y = 0)): 0.2921
- Risk Difference, vaping cessation Week 9 to 12 ([3]; Column 1 (Y = 0), 3 mg TID vs placebo): Risk Difference = 0.1668
- Relative Risk ([3]; Week 9 to 12, S = 0, N = 45, column 1 = no cessation): 1.2632
- Relative Risk ([3]; Week 9 to 12, S = 0, N = 45, column 2 = cessation): 0.5455
- Relative Risk ([3]; Week 9 to 12, Table 52 (S = 1), N = 115, column 1 = no cessation): 1.2383
- Relative Risk ([3]; Week 9 to 12, Table 52 (S = 1), N = 115, column 2 = cessation): 0.4405
- No vaping cessation (X = 1, Y = 0), frequency [3, 5]: 54
- Vaping cessation (X = 1, Y = 1), row pct [3, 5]: 29.87 Pct
- No vaping cessation (X = 1, Y = 0), frequency ([3]; Week 9 to 12, all subjects, row total 107): 73
- No vaping cessation (X = 1, Y = 0), frequency [3, 6]: 19
- Vaping cessation (X = 1, Y = 1), row pct [3, 6]: 36.67 Pct
- Common Odds Ratio, Logit [3, 7]: 2.6304
- Common Odds Ratio, Mantel-Haenszel [3, 7]: 2.6375
- Common Odds Ratio, Logit [3, 8]: 2.6199
- Common Odds Ratio, Mantel-Haenszel [3, 8]: 2.6199
- Column 2 Risk Estimate, Row 2 ([3]; cessation, Week 9 to 12, Table 61): 0.3178
- Column 1 Risk Estimate, Row 2 ([3]; no cessation, Week 9 to 12, Table 61): 0.6822
- Column 1 Risk Difference (Row 1-Row 2) ([3]; no cessation, placebo minus cytisinicline, Week 9 to 12): 0.1668
- odds ratio, vaping cessation weeks 9-12 ([3]; site as stratification factor, p=0.017): 3.03
- Vaping cessation from Week 9 to Week 12, % ([3]; stratum >100 cigarettes in lifetime = No, % of N = 107): 10.3%
- Vaping cessation from Week 9 to Week 12, % ([3]; stratum >100 cigarettes in lifetime = Yes, % of N = 107): 21.5%
- Odds Ratio ([3]; vaping cessation Week 9 to 12, S = 0, N = 45, vs placebo): 2.3158
- Odds Ratio ([3]; vaping cessation Week 9 to 12, Table 52 (S = 1), N = 115, vs placebo): 2.8111
- Marginal Odds Ratio (95% CI) ([3]; vaping cessation Week 9 to 12, placebo as reference, MIDP CI): 2.62 (1.133, 6.491)
- Common Odds Ratio (95% CI) ([3]; vaping cessation Week 9 to 12, placebo as reference, stratified): 2.64 (1.062, 7.098)
- Marginal Difference in Proportions (95% CI) ([3]; vaping cessation Week 9 to 12, vs placebo): 0.17 (0.012, 0.284)
- odds ratio, vaping cessation weeks 9-12 ([3]; without any stratification factor, p=0.035): 2.62
- binding to neuronal α4β2 receptors [4]: bind strongly and preferentially

Values joined by “and” are separate entries in the source; they are usually repeats but may differ in a detail not shown here. Equal values may be shown once.
